From patent publication US11083754B2, “Methods for generation of podocytes from pluripotent stem cells and cells produced by the same” (PRESIDENT AND FELLOWS OF HARVARD COLLEGE, priority 2014, dated 2021)

System: in vitro glomerular capillary wall (hiPS-derived podocytes / human glomerular endothelial cells)
Assay: Glomerular filtration of albumin and inulin in organ-on-a-chip lined by hiPS-derived podocytes and glomerular endothelial cells
Type: in vitro ADME
Excerpt: FIGS. 10A-10G show use of an organ-on-chip microphysiological device to perform the differentiation of human iPS-derived podocytes and to model the structure and function of human glomerular capillary wall. (FIG. 10A) Schematic representation of glomerular capillary wall showing podocytes and endothelial cells separated by glomerular basement membrane (GBM). Exemplary directional flow of molecules from capillary lumen to urinary space is shown by arrowed line. (FIG. 10B) Photograph (left) and schematic (right) of an exemplary microfluidic organ-on-chip device with compartments simulating the function of the urinary and capillary components of the glomerulus. The glomerular basement membrane is modeled by a porous PDMS membrane that is amenable to functionalization with ECM protein(s). (FIG. 10C) Fluorescent images of human iPS-derived podocytes differentiated in organs-on-chips microfluidic devices. Cells were differentiated in static (left), fluid flow (middle), or fluid flow and mechanical strain (right) conditions. Fluid was flowed at a rate of about 60 μL/hr in both the urinary and capillary compartments of the device. […] (FIG. 10G) Quantification of glomerular filtration of albumin and inulin continuously infused into the capillary channel of organs-on-chips lined by human iPS-derived podocytes and glomerular endothelial cells. […]

Q: Which “glomerular filtration on chip (capillary to urinary channel)” value does the source give for albumin here?
A: selective retention
